Tested on: B16-F10 mouse melanoma tumor
Assay: Daily vs single bolus intratumoral administration in B16-F10 mouse melanoma tumor model
Format: in vivo
Conditions: anti-PD1 mAb 100 ug i.p. Day 4 and 9
From the text: Mouse melanoma cells (B16-F10) are to be injected into the flank (right side) of mice (C57Bl/6) and a tumor is to be allowed to form. The agent will be administered intratumorally or peritumorally (i.e., intradermally or subcutaneously) either as: • 1. a single bolus, • 2. a series of fractional injections where the total dose given over the time frame is equivalent to the single bolus. These injections may be given daily or every other day. • 3. a silk microneedle patch formulated with the one or more therapeutic agents. The therapeutic agents to be investigated (i.e., as single agents and in combination) in these experiments may include, but are not limited to: • Anti-cancer agents, such as: • Chemotherapeutic agents: Gemcitabine, Doxorubicin, Oxaliplatin, Dacarbazine, Temozolomide • Targeted therapies: Vemurafenib, Dabrafenib, Trametinib • Other: mRNA encoding for anti-cancer agents • Immunomodulatory agents, such as: • Cytokines: IL-2, IL-12, IL-15, GM-CSF • Immunomodulatory agents: CpG, c-di-GMP • Checkpoint inhibitors: anti-PD1, anti-PD-L1, anti-CTLA4 • Other: mRNA encoding for cytokines and other immunomodulatory molecules
Tumor growth will be measured two to three times weekly. Animals will be euthanized when humane endpoints have been reached. […]

With “IL-2: cytokine interleukin 2, given intratumorally or dried in silk films” the “survival (Kaplan-Meier curve)” value (daily intratumoral doses (Days 7-11 and 21-25) compared to single bolus doses (Day 7 and 21)) was “better survival” and the “tumor burden, as determined by tumor volume over time” value (daily intratumoral doses (Days 7-11 and 21-25, each 1/5 of bolus) compared to single bolus doses (Day 7 and 21)) was “lower tumor burden”.

Source: US20220339416A1, “SILK FIBROIN-BASED MICRONEEDLES AND USES THEREOF” (VAXESS TECHNOLOGIES, INC., priority 2019, published 2022)
